Target: SNAP-β2AR (human beta-2 adrenergic receptor) (human, UniProt P07550, SNAP tag labelled with SBG-JF646)
Assay: single molecule pulldown

B1: β-arr1-ΔCTD-Halo (rat beta-arrestin 1 lacking the autoinhibitory C-terminal domain, aa 383-418) (domain or fragment)
chain: MGDKGTRVFKKASPNGKLTVYLGKRDFVDHIDLVDPVDGVVLVDPEYLKERRVYVTLTCAFRYGREDLDVLGLTFRKDLFVANVQSFPPAPEDKKPLTRLQERLIKKLGEHAYPFTFEIPPNLPCSVTLQPGPEDTGKACGVDYEVKAFCAENLEEKIHKRNSVRLVIRKVQYAPERPGPQPTAETTRQFLMSDKPLHLEASLDKEIYYHGEPISVNVHVTNNTNKTVKKIKISVRQYADICLFNTAQYKCPVAMEEADDTVAPSSTFCKVYTLTPFLANNREKRGLALDGKLKHEDTNLASSTLLREGANREILGIIVSYKVKVKLVVSRGGLLGDLASSDVAVELPFTLMHPKPKEEPPHREVPESETPVDTNLIELDTN
modifications: Halo tag labelled with CA-JF549 (or a mix of CA-JF549 and CA-JF646)
B1 was tested, and the “% colocalization” value was roughly 20%.
